This note sets out measurements from patent EP1209158A1, “Substituted beta-carbolines” (Aventis Pharma Deutschland GmbH, priority 2000, dated 2002).

Sequences of proteins named here, by UniProt entry; tags and fusion partners are left off. A change or cut given only in a name is not applied to a line headed by its entry.
UniProt O14920: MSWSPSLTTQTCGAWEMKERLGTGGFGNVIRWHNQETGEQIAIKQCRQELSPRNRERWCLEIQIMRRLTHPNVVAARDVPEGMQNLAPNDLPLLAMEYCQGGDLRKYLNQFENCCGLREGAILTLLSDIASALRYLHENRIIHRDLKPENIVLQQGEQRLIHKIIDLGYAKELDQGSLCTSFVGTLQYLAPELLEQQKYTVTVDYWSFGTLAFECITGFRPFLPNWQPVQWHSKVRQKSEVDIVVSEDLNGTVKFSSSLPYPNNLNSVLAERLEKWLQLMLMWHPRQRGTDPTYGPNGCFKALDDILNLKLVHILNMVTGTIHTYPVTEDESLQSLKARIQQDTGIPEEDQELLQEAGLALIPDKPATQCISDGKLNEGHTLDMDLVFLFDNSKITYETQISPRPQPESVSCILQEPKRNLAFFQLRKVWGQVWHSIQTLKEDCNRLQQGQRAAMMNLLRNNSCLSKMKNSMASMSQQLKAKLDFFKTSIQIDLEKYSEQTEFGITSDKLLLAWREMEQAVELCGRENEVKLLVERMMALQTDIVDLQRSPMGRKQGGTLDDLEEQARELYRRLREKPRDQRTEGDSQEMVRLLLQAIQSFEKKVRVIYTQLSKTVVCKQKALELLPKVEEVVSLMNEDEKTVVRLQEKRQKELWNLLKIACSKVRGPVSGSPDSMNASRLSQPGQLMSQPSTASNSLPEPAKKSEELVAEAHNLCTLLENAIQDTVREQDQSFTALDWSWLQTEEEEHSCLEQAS
UniProt O15111: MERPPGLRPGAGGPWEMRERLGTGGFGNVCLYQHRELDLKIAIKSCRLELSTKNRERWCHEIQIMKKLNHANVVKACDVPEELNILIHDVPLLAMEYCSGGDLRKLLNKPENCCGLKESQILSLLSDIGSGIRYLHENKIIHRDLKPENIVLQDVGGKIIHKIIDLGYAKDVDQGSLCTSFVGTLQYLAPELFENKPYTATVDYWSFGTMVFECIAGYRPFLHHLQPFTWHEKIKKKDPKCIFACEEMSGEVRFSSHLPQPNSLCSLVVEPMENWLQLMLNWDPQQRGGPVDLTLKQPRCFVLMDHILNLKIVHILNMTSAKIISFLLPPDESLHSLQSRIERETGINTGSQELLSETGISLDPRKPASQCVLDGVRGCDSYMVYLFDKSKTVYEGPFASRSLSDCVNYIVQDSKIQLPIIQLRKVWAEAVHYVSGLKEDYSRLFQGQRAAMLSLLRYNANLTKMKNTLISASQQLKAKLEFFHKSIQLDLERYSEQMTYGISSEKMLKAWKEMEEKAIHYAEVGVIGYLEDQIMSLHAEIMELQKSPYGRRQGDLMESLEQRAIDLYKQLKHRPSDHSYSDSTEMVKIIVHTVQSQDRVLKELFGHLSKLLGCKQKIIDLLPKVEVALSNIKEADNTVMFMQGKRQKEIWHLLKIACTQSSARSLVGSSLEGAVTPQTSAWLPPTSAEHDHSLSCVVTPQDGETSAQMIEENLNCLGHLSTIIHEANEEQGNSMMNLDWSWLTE

This assay concerns the target T1, IκBα-kinase complex (Homo sapiens, UniProt O14920+O15111).
T1 construct: IKBα kinase complex was prepared by first diluting 10 mL of HeLa S3 cell-extracts S100 fraction; endogenous in cells; host or cells: HeLa S3 (S100 fraction, 40% ammonium sulfate cut, Superose-6 fractions at about 670 kDa)
The class given is biochemical. To be noted: read-out: IkB-kinase IC50.

What is called IC50 is the concentration that inhibits the measured activity by half. For “7-chloro-9-(dimethylamino)-β-carboline trifluoroacetate [Example 44]”, the IC50 worked out at 2000 nM.
